Experimental data from ChEMBL document CHEMBL4184302, “Virtual target screening reveals rosmarinic acid and salvianolic acid A inhibiting metallo- and serine-β-lactamases” (Bioorg Med Chem Lett, 2018).

System: Bacteria
Assay: Competitive inhibition of bacterial N-terminal His6-tagged VIM2 (27 to 266 residues) expressed in Escherichia coli BL21 DE3 pLysS cells assessed as substrate Vmax using varying levels of FC-5 as substrate by fluorescence assay

## O=C(/C=C/c1ccc(O)c(O)c1)O[C@H](Cc1ccc(O)c(O)c1)C(=O)O [ROSMARINIC ACID]
  Vmax: 4.59 µM/min
